# Antibody variant affinities, Ab-14 heavy chain, assay 1

Reference: Engelhart et al. 2022, doi:10.1038/s41597-022-01779-4. File: FLAb, binding data.

Target peptide (SARS-CoV-2 spike, HR2 region): PDVDLGDISGINAS

Ab-14 is the parent antibody, in scFv form: VH, then a (GGGGS)3 linker, then VL. The light chain is unchanged in all variants.
VH: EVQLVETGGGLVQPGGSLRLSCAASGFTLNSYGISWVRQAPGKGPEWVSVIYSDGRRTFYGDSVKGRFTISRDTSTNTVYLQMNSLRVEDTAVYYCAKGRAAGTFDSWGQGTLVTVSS
VL: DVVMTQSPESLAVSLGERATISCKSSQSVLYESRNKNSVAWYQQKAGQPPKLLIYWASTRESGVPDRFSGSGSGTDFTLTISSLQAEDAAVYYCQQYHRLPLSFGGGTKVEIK

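Phage display of a naive human antibody library on the peptide gave the parent. The library (AAYL49) carries one to three amino acid substitutions per variant, with no insertions or deletions. AlphaSeq pools MATa yeast showing the antibodies with MATalpha yeast showing the peptide. Mating (16 h, 30 °C) was followed by selection of diploids and sequencing of their barcodes. Scores were corrected for input abundance and mapped to Kd with protein pairs of known affinity run in the same pool. There are three technical replicates.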

Sequences are complete VH domains. Every variant below is changed at D106 of the VH (sequential numbering). Affinities are written as log10 Kd with Kd in nM; a lower number is a better binder. Replicates are averaged; those with no signal do not enter the mean. "no signal" marks a missing value. The strain was present, yet no cells mated with the target were sequenced in any replicate, which points to weak or no binding. Parent in this assay: reference entry 0.65, copy in this library 4.11 (one replicate of three). Background: pairings of library AAYL49 with three empty control strains gave a value in 15% of cases (median 4.06, 5th percentile 2.83). Values in that range, when seen in few replicates, are hard to tell from nonspecific mating. The control count says in how many pairings with the empty strains this scFv gave a signal.

For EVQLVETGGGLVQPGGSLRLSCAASGFTLNSYGISWVRQAPGKGPEWVSVIYSDGRKTFYGDVVKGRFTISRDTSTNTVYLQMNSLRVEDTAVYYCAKGRAAGTFQSWGQGTLVTVSS, the assay gave 4.99 (2 of 3 replicates; controls 0 of 9).
For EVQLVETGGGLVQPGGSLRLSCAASGFTLNSMGISWVRQAPGKGPEWVSVIYSDGRRTFYGDSVKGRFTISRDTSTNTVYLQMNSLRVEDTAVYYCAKGRAAGTFVSWGQGTLVTVSS, the assay gave 4.45 (2 of 3 replicates; controls 4 of 9).
For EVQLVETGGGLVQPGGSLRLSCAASGFTLMSYGNSWVRQAPGKGPEWVSVIYSDGRRTFYGDSVKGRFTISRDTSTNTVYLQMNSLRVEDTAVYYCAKGRAAGTFVSWGQGTLVTVSS, the assay gave 3.86 (1 of 3 replicates; controls 0 of 9).
For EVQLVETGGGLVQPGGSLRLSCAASGFTLNSYGISWVRQAPGKGPEWVSVIYSDGSRTFYGDQVKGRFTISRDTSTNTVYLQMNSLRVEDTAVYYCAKGRAAGTFGSWGQGTLVTVSS, the assay gave 1.20 (3 of 3 replicates; controls 2 of 9).
For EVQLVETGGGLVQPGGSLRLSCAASGFTLNSYGISWVRQAPGKGPEWVSVIYSDGRRTVYGDSVKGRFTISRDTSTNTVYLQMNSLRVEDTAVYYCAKGRQAGTFQSWGQGTLVTVSS, the assay gave 2.39 (3 of 3 replicates; controls 2 of 9).
For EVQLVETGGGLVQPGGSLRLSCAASGFTLNSYGISWVRQAPGKGPEWVSYIYSDGRRTFYGDTVKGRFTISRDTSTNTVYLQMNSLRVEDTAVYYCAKGRAAGTFFSWGQGTLVTVSS, the assay gave 4.02 (1 of 3 replicates; controls 0 of 9).
For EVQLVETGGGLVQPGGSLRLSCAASGFTLNSYGISWVRQAPGKGPEWVSLIYSDGRRTCYGDSVKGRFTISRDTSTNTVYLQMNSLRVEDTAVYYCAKGRAAGTFRSWGQGTLVTVSS, the assay gave no signal (0 of 3 replicates; controls 0 of 9).
For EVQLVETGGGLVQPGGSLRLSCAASGFTLNSCGISWVRQAPGKGPEWVSVIYSDERRTFYGDSVKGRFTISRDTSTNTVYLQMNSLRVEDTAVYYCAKGRAAGTFWSWGQGTLVTVSS, the assay gave 3.25 (1 of 3 replicates; controls 0 of 9).
For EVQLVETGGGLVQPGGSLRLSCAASGFTLNVYGISWVRQAPGKGPEWVSVIYSDGRRTFYCDSVKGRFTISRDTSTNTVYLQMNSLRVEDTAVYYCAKGRAAGTFASWGQGTLVTVSS, the assay gave 2.32 (3 of 3 replicates; controls 3 of 9).
For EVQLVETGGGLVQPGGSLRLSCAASGFTLNSYGISWVRQAPGKGPEWVSVIYSDGRRTFYGDSAKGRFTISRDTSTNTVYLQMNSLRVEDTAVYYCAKGRAAGLFASWGQGTLVTVSS, the assay gave no signal (0 of 3 replicates; controls 0 of 9).
For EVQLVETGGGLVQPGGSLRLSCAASGFTLNSYGISWVRQAPGKGPEWVSVIWSFGRRTFYGDSVKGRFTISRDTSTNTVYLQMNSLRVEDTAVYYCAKGRAAGTFHSWGQGTLVTVSS, the assay gave 3.14 (1 of 3 replicates; controls 2 of 9).
For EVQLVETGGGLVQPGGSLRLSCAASGFTLNSYGISWVRQAPGKGPEWVSVIYSDARRTFYGDSVKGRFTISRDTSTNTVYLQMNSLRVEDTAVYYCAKGRSAGTFRSWGQGTLVTVSS, the assay gave no signal (0 of 3 replicates; controls 1 of 9).
For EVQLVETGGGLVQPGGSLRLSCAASGFTINSYGISWVRQAPGKGPEWVSVIYSDGRRTFYGDSVKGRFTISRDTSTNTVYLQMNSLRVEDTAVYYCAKGCAAGTFKSWGQGTLVTVSS, the assay gave 1.80 (3 of 3 replicates; controls 0 of 9).
For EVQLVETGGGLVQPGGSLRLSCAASGFTLPSYGISWVRQAPGKGPEWVSVIYSDGRRTFYGDSVKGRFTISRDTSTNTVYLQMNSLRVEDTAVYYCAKGRAAGTFKSWGQGTLVTVSS, the assay gave 1.84 (3 of 3 replicates; controls 0 of 9).
For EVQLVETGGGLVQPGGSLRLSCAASGFTLNCYGISWVRQAPGKGPEWVSVIYSDGRRTVYGDSVKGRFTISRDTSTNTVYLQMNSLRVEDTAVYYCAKGRAAGTFNSWGQGTLVTVSS, the assay gave no signal (0 of 3 replicates; controls 0 of 9).
For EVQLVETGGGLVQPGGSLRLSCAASGFTLNSHGISWVRQAPGKGPEWVSVIYSDGRRKFYGDSVKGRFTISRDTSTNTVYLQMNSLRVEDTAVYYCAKGRAAGTFSSWGQGTLVTVSS, the assay gave 4.98 (1 of 3 replicates; controls 3 of 9).
For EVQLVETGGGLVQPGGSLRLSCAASGFTLNSYGISWVRQAPGKGPEWVSVIKSDGRRTFYGDCVKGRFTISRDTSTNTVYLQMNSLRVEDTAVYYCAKGRAAGTFFSWGQGTLVTVSS, the assay gave 4.72 (1 of 3 replicates; controls 2 of 9).
For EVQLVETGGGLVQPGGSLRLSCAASEFTLNSYGISWVRQAPGKGPEWVSVIYSDGRRTFYGDSVKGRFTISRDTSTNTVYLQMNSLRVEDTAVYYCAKGRAAGTFCHWGQGTLVTVSS, the assay gave 2.85 (1 of 3 replicates; controls 1 of 9).
For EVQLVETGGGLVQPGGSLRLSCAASGFTLNSYGISWVRQAPGKGPEWVSVITSDGRRTFYGGSVKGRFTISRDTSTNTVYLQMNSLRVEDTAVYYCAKGRAAGTFHSWGQGTLVTVSS, the assay gave 3.44 (1 of 3 replicates; controls 5 of 9).
For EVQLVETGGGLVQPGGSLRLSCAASGFTLNSYGPSWVRQAPGKGPEWVSVIYIDGRRTFYGDSVKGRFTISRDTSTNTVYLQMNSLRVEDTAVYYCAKGRAAGTFMSWGQGTLVTVSS, the assay gave no signal (0 of 3 replicates; controls 5 of 9).
For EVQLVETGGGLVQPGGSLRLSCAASGFTLNSYGISWVRQAPGKGPEWVSVIYSDGRRTLYGDSVSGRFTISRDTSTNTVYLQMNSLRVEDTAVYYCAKGRAAGTFWSWGQGTLVTVSS, the assay gave no signal (0 of 3 replicates; controls 3 of 9).
For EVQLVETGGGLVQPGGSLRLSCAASGFTLNSYGISWVRQAPGKGPEWVSVIYSDGRRAIYGDSVKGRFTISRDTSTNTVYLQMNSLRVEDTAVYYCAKGRAAGTFHSWGQGTLVTVSS, the assay gave 3.21 (3 of 3 replicates; controls 2 of 9).
For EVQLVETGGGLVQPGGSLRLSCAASGFTLQSYGISWVRQAPGKGPEWVSVIYSDGRRTFYGDSVKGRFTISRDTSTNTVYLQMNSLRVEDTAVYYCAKGRAAGTASSWGQGTLVTVSS, the assay gave no signal (0 of 3 replicates; controls 1 of 9).

Repeated from above, the 3 best binders with a signal in all replicates:

The variant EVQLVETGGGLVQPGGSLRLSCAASGFTLNSYGISWVRQAPGKGPEWVSVIYSDGSRTFYGDQVKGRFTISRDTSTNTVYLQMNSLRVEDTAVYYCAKGRAAGTFGSWGQGTLVTVSS showed 1.20 (3 of 3 replicates; controls 2 of 9).
The variant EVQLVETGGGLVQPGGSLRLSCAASGFTINSYGISWVRQAPGKGPEWVSVIYSDGRRTFYGDSVKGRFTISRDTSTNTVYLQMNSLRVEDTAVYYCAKGCAAGTFKSWGQGTLVTVSS showed 1.80 (3 of 3 replicates; controls 0 of 9).
The variant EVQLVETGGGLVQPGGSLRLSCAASGFTLPSYGISWVRQAPGKGPEWVSVIYSDGRRTFYGDSVKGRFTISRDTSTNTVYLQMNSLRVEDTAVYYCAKGRAAGTFKSWGQGTLVTVSS showed 1.84 (3 of 3 replicates; controls 0 of 9).